Measured values as given in ChEMBL document CHEMBL1149646, “2D Quantitative structure-activity relationship studies on a series of cholesteryl ester transfer protein inhibitors” (Bioorg Med Chem, 2007).

Target: T1, Cholesteryl ester transfer protein (Homo sapiens, UniProt P11597)
T1 sequence (P11597 whole entry): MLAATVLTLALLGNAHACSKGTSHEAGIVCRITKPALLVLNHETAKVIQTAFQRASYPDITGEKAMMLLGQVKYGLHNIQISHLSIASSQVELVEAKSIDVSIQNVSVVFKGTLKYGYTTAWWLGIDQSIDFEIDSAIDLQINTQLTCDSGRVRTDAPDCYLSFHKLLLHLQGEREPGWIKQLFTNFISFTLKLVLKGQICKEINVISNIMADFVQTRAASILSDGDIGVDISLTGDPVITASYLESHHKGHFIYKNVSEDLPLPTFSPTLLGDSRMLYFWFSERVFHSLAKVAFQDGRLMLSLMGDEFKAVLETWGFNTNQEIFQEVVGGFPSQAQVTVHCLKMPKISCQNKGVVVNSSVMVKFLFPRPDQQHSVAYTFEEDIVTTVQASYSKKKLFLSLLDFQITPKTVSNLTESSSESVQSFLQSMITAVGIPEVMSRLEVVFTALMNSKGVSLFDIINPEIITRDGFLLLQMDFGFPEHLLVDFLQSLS
Experiment: Inhibition of CETP

Compound | pIC50
OC(CN(Cc1cccc(OC(F)(F)C(F)F)c1)c1cccc(OCc2cccc(OC(F)(F)F)c2)c1)C(F)(F)F (configuration not stated) | 6.52
CCCOc1ccc(Oc2cccc(N(Cc3cccc(OC(F)(F)C(F)F)c3)CC(O)C(F)(F)F)c2)cc1 (configuration not stated) | 7.10

pIC50: −log10 of the molar value.
